The values that follow come from patent US20240254119A1 (THIRD HARMONIC BIO, INC., priority 2022, published 2024).

Amino acid sequences for entries named in this document (tags omitted). Residues count along the entry.
UniProt P10721, 26-976 limits assumed: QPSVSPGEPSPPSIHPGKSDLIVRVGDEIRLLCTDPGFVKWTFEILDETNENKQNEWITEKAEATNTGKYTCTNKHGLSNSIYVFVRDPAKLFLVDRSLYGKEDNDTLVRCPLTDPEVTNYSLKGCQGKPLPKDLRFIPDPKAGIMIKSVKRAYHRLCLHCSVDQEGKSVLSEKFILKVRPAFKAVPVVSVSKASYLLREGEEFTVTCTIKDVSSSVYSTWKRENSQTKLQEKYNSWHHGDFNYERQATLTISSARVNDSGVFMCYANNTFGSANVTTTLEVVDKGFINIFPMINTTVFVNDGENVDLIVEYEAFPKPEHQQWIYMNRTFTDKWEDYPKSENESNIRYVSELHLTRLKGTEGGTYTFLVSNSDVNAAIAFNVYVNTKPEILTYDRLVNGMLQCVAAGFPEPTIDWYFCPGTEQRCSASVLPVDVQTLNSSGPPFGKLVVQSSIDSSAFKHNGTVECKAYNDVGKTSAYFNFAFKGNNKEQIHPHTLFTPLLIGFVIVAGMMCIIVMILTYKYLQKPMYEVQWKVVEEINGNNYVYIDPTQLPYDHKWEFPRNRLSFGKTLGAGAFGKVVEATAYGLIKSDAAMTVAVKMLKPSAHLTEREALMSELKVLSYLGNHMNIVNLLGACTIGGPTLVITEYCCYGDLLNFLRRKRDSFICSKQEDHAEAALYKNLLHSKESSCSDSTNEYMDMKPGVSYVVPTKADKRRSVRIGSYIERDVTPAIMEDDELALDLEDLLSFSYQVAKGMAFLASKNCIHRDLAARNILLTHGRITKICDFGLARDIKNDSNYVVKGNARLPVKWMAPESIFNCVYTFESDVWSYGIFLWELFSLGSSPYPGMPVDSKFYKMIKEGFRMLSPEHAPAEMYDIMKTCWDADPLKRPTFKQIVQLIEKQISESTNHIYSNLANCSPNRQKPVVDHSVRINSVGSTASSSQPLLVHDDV
UniProt P07333, 20-972 limits assumed: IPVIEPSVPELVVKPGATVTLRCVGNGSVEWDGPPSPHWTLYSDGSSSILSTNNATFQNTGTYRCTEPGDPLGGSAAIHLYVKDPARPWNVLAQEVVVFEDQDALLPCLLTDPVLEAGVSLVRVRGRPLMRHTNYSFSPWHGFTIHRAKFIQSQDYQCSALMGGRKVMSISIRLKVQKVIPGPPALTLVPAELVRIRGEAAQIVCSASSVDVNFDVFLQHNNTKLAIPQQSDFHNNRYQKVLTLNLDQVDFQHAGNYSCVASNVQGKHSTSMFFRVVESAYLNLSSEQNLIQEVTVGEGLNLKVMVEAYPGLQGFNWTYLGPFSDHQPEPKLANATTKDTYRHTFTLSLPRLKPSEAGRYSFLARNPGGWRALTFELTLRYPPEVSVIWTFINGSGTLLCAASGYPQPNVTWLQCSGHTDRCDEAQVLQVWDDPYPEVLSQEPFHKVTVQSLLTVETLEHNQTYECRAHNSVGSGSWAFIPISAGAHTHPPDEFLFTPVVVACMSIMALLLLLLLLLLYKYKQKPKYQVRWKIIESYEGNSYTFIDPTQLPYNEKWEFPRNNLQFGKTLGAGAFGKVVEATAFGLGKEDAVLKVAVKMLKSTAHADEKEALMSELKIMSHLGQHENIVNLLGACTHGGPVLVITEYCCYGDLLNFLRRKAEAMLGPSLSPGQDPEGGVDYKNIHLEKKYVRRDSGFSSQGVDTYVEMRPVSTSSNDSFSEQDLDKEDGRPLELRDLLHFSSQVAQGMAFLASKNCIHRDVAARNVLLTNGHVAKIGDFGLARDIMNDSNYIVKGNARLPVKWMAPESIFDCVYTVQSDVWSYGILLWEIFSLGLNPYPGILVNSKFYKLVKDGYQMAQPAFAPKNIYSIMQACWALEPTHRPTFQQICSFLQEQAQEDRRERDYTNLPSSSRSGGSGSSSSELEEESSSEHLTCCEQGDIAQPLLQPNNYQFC
UniProt P16234, 24-1089 limits assumed: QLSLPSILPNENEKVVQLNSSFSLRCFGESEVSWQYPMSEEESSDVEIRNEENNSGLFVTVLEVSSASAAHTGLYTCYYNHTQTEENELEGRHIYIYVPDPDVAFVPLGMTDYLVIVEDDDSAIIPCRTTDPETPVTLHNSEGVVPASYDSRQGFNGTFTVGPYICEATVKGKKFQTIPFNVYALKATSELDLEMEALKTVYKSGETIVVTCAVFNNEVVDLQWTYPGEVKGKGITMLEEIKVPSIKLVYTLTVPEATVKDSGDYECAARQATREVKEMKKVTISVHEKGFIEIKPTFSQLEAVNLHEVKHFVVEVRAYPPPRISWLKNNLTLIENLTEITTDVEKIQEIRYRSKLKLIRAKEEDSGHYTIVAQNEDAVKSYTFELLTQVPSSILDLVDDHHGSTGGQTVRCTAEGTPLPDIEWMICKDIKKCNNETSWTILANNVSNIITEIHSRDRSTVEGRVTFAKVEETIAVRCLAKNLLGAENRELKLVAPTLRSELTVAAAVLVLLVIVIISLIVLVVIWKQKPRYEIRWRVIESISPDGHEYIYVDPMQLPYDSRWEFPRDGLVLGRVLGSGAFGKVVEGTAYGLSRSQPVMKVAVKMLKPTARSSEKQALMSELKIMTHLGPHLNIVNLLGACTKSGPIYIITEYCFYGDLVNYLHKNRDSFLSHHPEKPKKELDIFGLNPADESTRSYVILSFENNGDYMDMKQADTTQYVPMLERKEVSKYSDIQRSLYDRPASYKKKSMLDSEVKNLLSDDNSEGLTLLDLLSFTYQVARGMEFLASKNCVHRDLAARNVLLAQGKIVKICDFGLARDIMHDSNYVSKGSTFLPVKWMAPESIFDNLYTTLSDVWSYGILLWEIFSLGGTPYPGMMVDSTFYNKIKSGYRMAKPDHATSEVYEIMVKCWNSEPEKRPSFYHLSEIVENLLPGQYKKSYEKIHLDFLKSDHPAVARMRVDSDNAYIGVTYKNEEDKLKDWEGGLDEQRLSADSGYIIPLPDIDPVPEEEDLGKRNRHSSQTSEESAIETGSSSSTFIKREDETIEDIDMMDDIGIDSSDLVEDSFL
UniProt Q9UNQ0, whole entry: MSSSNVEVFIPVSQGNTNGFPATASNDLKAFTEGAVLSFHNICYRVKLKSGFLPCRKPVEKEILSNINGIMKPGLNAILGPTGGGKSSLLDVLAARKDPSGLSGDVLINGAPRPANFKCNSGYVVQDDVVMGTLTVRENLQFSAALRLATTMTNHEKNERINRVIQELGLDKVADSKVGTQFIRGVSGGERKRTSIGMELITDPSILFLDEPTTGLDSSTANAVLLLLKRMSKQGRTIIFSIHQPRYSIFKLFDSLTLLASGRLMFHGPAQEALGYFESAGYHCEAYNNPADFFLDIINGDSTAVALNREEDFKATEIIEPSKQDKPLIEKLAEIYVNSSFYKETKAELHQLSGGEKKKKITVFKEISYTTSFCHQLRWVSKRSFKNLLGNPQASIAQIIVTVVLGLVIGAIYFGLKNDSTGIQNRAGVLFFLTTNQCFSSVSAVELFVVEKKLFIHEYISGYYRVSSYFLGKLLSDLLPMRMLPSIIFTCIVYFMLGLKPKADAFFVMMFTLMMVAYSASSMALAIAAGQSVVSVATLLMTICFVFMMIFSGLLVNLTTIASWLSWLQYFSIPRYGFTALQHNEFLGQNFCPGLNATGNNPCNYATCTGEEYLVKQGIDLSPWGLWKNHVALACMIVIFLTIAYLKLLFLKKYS

Data set [1] addresses T1, wtKIT (Homo sapiens, UniProt P10721). In words: Caliper biochemical assay, wtKIT. The conditions noted are these: read-out: KIT Biochemical IC50 avg, Table 6.
Data set [2] concerns the target CSF-1R (Homo sapiens, UniProt P07333). Description: Caliper biochemical assay, CSF-1R. The conditions noted are these: read-out: CSF-1R Biochemical IC50, Table 6.
Data set [3] concerns the target PDGFRα (Homo sapiens, UniProt P16234). In words: Caliper biochemical assay, PDGFRα. The conditions noted are these: read-out: PDGFRα Biochemical Avg IC50, Table 6.
The test system of data set [4] is KIT phosphorylation in M-07e cells. In words: Cell-based KIT phosphorylation in M-07e cells by pKIT ELISA. The conditions noted are these: read-out: M-07e pKIT IC50, SCF stimulation. (In general: In an ELISA, binding on a coated surface is turned into a signal by an enzyme label.)
Data set [5] is described as follows: Kinetic solubility assay. The conditions noted are these: 50 mM PB (pH 7.4), shaken 24 hours at RT.
In data set [6] the target is BCRP (BCRP-MDCKII monolayer) (Homo sapiens, UniProt Q9UNQ0). In words: MDCKII-BCRP bidirectional transport assay. The conditions noted are these: for MDCK-BCRP: Papp A-B: apical to basolateral.
The target in data set [7] is T1, wtKIT. In words: HTRF biochemical assay, wtKIT (phosphorylation of a peptide substrate). The conditions noted are these: read-out: KIT Biochemical IC50 avg, Table 4. Background: Time-resolved FRET reads energy transfer from a long-lived donor to a nearby acceptor.

The structures appear in SMILES notation.

As usually defined, the IC50 is the midpoint of a concentration-inhibition curve. With `Cc1ccc(-c2noc(C3CC3F)n2)cc1NC(=O)c1cnc2cc(COCC(F)(F)F)ccn12` (stereo not shown), the IC50 in data set [1] is < 50 nM; in data set [2] it was < 50 nM; in data set [3], 50 to 500 nM; in data set [4] it was 50 to 500 nM. In data set [5], the “Solubility (μM)” value is “**** (a solubility less than or equal to 2 μM)”.
As to `Cc1ccc(-c2noc(C3CC34CC4)n2)cc1NC(=O)c1cnc2ccccn12` (stereo not shown), the IC50 is < 50 nM in data set [1], < 50 nM in data set [2], 500 to 5000 nM in data set [3] and < 50 nM in data set [4]. The MDCK-BCRP: Efflux Ratio in data set [6] worked out at 0.94. Also, the “MDCK-BCRP: Papp A-B” value in data set [6] was 12.4 10^−6 cm/s. In addition, the “Solubility (μM)” value in data set [5] is reported as “**** (a solubility less than or equal to 2 μM)”.
As for `Cc1ccc(-c2noc(C3(C)CC3(F)F)n2)cc1NC(=O)c1cnc2ccccn12` (stereo not shown), the IC50 in data set [1] is < 50 nM; in data set [2], 50 to 500 nM; in data set [3], 500 to 5000 nM; in data set [4], < 50 nM. Also, the “Solubility (μM)” value in data set [5] is “**** (a solubility less than or equal to 2 μM)”.
Take `COC(=O)Nc1ccc2ncc(C(=O)Nc3cc(-c4noc([C@H]5C[C@@H]5F)n4)ccc3C)n2c1`: the IC50 in data set [1] was < 50 nM; in data set [2], < 50 nM; in data set [3], 50 to 500 nM; in data set [4] it was < 50 nM. Moreover, the “Solubility (μM)” value in data set [5] was “*** (a solubility greater than 2 μM and less than or equal to 10 μM)”.
On to `CNc1ccc2ncc(C(=O)Nc3cc(-c4noc(C)n4)ccc3C)n2c1`, for which the concentration for half-maximal inhibition (IC50) in data set [1] is < 50 nM; in data set [2] it was < 50 nM; in data set [3] it was 50 to 500 nM; in data set [4] it was < 50 nM. In addition, in data set [5], the “Solubility (μM)” value was “**** (a solubility less than or equal to 2 μM)”.
In the case of `Cc1ccc(-c2noc([C@H]3C[C@@H]3F)n2)cc1NC(=O)c1cnc2cc(NS(C)(=O)=O)ccn12`, the 50% inhibitory concentration (IC50) is < 50 nM in data set [1], < 50 nM in data set [2], 500 to 5000 nM in data set [3] and 50 to 500 nM in data set [4]. Further, the “Solubility (μM)” value in data set [5] is “** (a solubility greater than 10 μM and less than or equal to 50 μM)”.
`Cc1ccc(-c2noc([C@@H]3C[C@H]3C#N)n2)cc1NC(=O)c1cnc2ccccn12` (relative stereo): the IC50 in data set [1], in data set [2], in data set [3] and in data set [4] was < 50 nM each time. Further, in data set [6], the MDCK-BCRP: Efflux Ratio worked out at 2.66. Also, the “MDCK-BCRP: Papp A-B” value in data set [6] was 7.77 10^−6 cm/s.
`Cc1ccc(-c2noc(CC3COC3)n2)cc1NC(=O)c1cnc2ccccn12`: the half-maximal inhibitory concentration (IC50) in data set [1] was < 50 nM; in data set [2], 50 to 500 nM; in data set [3], 500 to 5000 nM; in data set [4], < 50 nM. For the same molecule, the “Solubility (μM)” value in data set [5] is “** (a solubility greater than 10 μM and less than or equal to 50 μM)”.
On to `Cc1ccc(-c2noc([C@H]3C[C@@H]3F)n2)cc1NC(=O)c1cnc2cc(NS(=O)(=O)C3CC3)ccn12`, for which the IC50 in data set [7] is < 50 nM; in data set [1] it was < 50 nM; in data set [2] it was < 50 nM; in data set [3] it was 50 to 500 nM; in data set [4] it was < 50 nM. For the same molecule, the MDCK-BCRP: Efflux Ratio in data set [6] was 27.5. Besides, in data set [6], the “MDCK-BCRP: Papp A-B” value is 0.56 10^−6 cm/s. Also, the “Solubility (μM)” value in data set [5] was “** (a solubility greater than 10 μM and less than or equal to 50 μM)”.
On to `Cc1ccc(-c2noc(CCO)n2)cc1NC(=O)c1cnn2ccccc12`, for which the half-maximal inhibitory concentration (IC50) is < 50 nM in data set [1], 500 to 5000 nM in data set [2], 5000 to 30000 nM in data set [3] and 50 to 500 nM in data set [4]. The “Solubility (μM)” value in data set [5] was “** (a solubility greater than 10 μM and less than or equal to 50 μM)”.
On to `O=C(Nc1cccc(-c2noc(CN3CC(F)(F)C3)n2)c1F)c1cnc2ccccn12`, for which the IC50 in data set [1] is < 50 nM; in data set [2], 5000 to 30000 nM; in data set [3] it was 5000 to 30000 nM; in data set [4], < 50 nM. In addition, the “Solubility (μM)” value in data set [5] is on record as “**** (a solubility less than or equal to 2 μM)”.
